Experimental findings from PubChem BioAssay AID624172 (National Center for Advancing Translational Sciences (NCATS), 2012) are described below.

The chains behind the UniProt entries cited, without tags or fusion partners. Where a name states a change or a piece, a line headed by the entry shows the natural chain unless it says otherwise.
UniProt P43220, whole entry, stated change not applied: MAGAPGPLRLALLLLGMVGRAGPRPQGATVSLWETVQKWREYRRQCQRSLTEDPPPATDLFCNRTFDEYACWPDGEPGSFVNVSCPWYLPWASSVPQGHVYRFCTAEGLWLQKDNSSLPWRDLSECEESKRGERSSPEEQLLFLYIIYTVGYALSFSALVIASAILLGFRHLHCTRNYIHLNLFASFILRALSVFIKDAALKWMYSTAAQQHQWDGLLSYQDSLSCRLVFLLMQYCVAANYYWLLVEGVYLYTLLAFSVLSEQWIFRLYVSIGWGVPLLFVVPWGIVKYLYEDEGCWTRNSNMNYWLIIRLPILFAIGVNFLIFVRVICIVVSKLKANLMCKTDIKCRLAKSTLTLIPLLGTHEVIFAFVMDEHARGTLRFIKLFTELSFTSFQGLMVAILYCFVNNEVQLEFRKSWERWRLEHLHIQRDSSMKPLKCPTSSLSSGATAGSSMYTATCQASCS

Molecules are shown by their SMILES. The entries are a selection whose mix differs from that of the whole data set. Calls of active or inactive are those of the source. Calls come from the whole dose curve; as a rule, active = well fitted activation curve with a large enough effect; inconclusive = small, poorly fitted or top-dose-only effect; inactive = no such curve, though single readings can be large or run the other way.

The target of the test is Glucagon-like peptide 1 receptor (Homo sapiens) (UniProt P43220). As to the kind of experiment: qHTS of GLP-1 Receptor Agonists. Note: % of control where 0% means no effect. The note with it: HEK293 GLP-1R CRE-luciferase, luminescence, 4-6 h, cells express a hypersensitive GLP-1R form; at 45.6 µM (top of the series). An excerpt: The overall goal of this project was to develop a novel assay for discovering small molecule ligands for class B1 G protein-coupled receptors (GPCRs). Very few agonists (or inverse agonists) with generally weak activity for this entire group of physiologically important receptors are known to date. To establish proof-of-principle that this critical bottleneck can be overcome with a suitable screening approach, our studies focused on the class B1 receptor for glucagon-like peptide-1 (GLP-1R), a potential therapeutic target for diabetes and neurodegenerative disease.
The assay was developed in a "mix and measure" format using a cell-based functional readout. Toward this goal, stably transfected HEK293 cell clones were established that co-express (i) a cAMP-responsive luciferase reporter gene, and (ii) GLP-1Rs that upon ligand interaction either stimulate (agonists) or inhibit (inverse agonists) luciferase activity. In different cell lines to be used for screening, expressed GLP-1Rs are specifically optimized for high sensitivity detection of either weak agonists (hypersensitive receptor) or inverse agonists (constitutively active receptor mutant). In addition, control cell lines were developed that express either the cAMP-responsive reporter gene without recombinant GLP-1Rs (enabling initial exclusion of GLP-1R independent effects of candidate probes), or the reporter gene together with wild type GLP-1Rs (for confirmation of probe activity at this receptor), or the reporter gene in combination with the constitutively active orphan receptor GPR119 (enabling initial exclusion of GLP-1R independent inhibitory effects of candidate inverse agonists).
To that end, this assay was optimized for 1536-well format and screened against the MLSMR.
NIH Molecular Libraries Probe Production Network [MLPCN]
NIH Chemical Genomics Center [NCGC]
PI Name: Martin Beinborn, Tufts Medical Center
In a white solid 1536-well plate, 6 uL of cells are dispensed in DMEM without phenol red, 10% Nu serum, and 1% pen-strep medium. The plates are then incubated for 12 hours at 37 deg C at 5% CO2 before 23 nL of compounds are added. After a 4-6 hr incubation at37 deg C and 5% CO2, 3 uL of detection reagent are added and after a 12 min incubation at RT, a luminescent read is obtained on the ViewLux.
A general note: Quantitative high-throughput screening tests each substance at several concentrations.
Turning to `O=C(NCC1(N2CCCCC2)CCCCC1)c1ccc(OC(F)F)cc1`, the activation was inactive: 5.62%. In the case of `CC(C)(C)n1nnnc1C(c1ccccc1OC(F)(F)F)N1CCC(n2c(=O)[nH]c3ccccc32)CC1` (stereo not given) it was inactive: -4.84%. Then `O=c1[nH]c2ccccc2n1C1CCN(C(c2ccccc2OC(F)(F)F)c2nnnn2C2CCCC2)CC1` (stereo not given), with inactive: -2.45%; and `N#CC1(Nc2ccccc2)CCN(CCc2ccccc2)CC1`, with inactive: -14.6%. Then `CCN1CCC(Nc2ccc(Cl)cc2)CC1`, with inactive: -7.86%; and `CCOc1ccc(C(=O)NCC2(N3CCOCC3)CCCCC2)cc1`, with inactive: -5.2%. On to `O=C(NCC1(N2CCCCC2)CCCCC1)c1cccc([N+](=O)[O-])c1`, for which the activation is inactive: 7.79%. Then `CSc1ccc(C(=O)NCC2(N3CCOCC3)CCCCC2)cc1`, with inactive: 14.7%; and `O=[N+]([O-])c1cc([N+](=O)[O-])c(NCC2CCS(=O)(=O)C2)c([N+](=O)[O-])c1` (stereo not given), with inactive: -6.14%; and `O=C(NCC1(N2CCCCC2)CCCCC1)c1cccc(C(F)(F)F)c1`, with inactive: 7.44%. Then `COc1cc(C(=O)NCC2(N3CCCCC3)CCCCC2)ccc1OC(F)F`, with inactive: 9.83%. `O=C(NCC1(N2CCOCC2)CCCCC1)c1cc(=O)[nH]c2ccccc12`: the activation is inactive: -0.257%. In the case of `CN1CCN(CCOC(=O)C(O)(c2ccccc2)c2ccccc2)CC1` it was inactive: -6.88%. Then `COc1ccc(NC2CCN(C(=O)OC(C)(C)C)CC2)cc1`, with inactive: 6.3%; and `CC(C)c1ccc(C(=O)NCC2(N3CCOCC3)CCCCC2)cc1`, with inactive: 6.94%; and `CCCCn1nnnc1C(c1cccc2ccccc12)N1CCC(n2c(=O)[nH]c3ccccc32)CC1` (stereo not given), with inactive: -0.741%. For the compound `CCCCn1nnnc1C(c1ccccc1OC(F)(F)F)N1CCC(n2c(=O)[nH]c3ccccc32)CC1` (stereo not given), the activation is inactive: -8.76%. For `CC(C)c1ccc(NC2CCN(C(=O)OC(C)(C)C)CC2)cc1`, the activation was inactive: 8.73%.

For the compound `O=[N+]([O-])c1cc([N+](=O)[O-])c(OC2CCCCC2O)c([N+](=O)[O-])c1` (stereo not given), the activation is inactive: 14.8%. Then `CN(C)c1cccc(C(=O)NCC2(N3CCCCC3)CCCCC2)c1`, with inactive: -1.06%; and `COc1ccc(CN(CCCl)CCCl)cc1Cl`, with inactive: 6.73%. Then `O=C(NCC1(N2CCOCC2)CCCCC1)c1cc(F)c(F)cc1Cl`, with inactive: 3.56%; and `CCC(c1nnnn1C(C)(C)C)N1CCC(n2c(=O)[nH]c3ccccc32)CC1` (stereo not given), with inactive: -1.33%; and `COc1cc(OC)c(C(=O)NCC2(N(C)C)CCCCC2)cc1OC`, with inactive: 8.34%. In the case of `CCCCn1nnnc1C(c1ccnc2ccccc12)N1CCC(n2c(=O)[nH]c3ccccc32)CC1` (stereo not given) it was inactive: 12.1%.
